From patent US20250352554A1 (Neurelis, Inc., priority 2024, published 2025)
Like-named read-outs stand apart in the source and are kept apart here.

Legend:
[1] = cited from earlier work

## Cc1cc2c(s1)Nc1ccccc1N=C2N1CCN(C)CC1 [olanzapine, 2-methyl-4-(4-methyl-1-piperazinyl)-10H-thieno[2,3-b][1,5]benzodiazepine]
[1]; 5 mg oral dose
  Cmax: 7 ng/mL
[1]; 10 mg oral dose
  Cmax: 14 ng/mL
Vitamin E, benzyl alcohol, ethanol, two weeks at 40° C.
  compatibility with individual solvents (degradation products, color changes): significant incompatibilities
Approximately 5 mg/mL in dimethylacetamide or PEG 400, two months at 40° C.
  USP Related Compounds B and C: did not significantly increase
